The target of this assay is human PPARγ (hPPARγ) (Homo sapiens, UniProt P37231). The assay is described as follows: Transactivation reporter assay (chimeric GAL4-PPAR reporter-gene assay in CV-1 cells). To be noted: for EC50: CV-1 cells, 48 h, luciferase, triplicate; for Agonistic intensity: percentage of agonistic potency relative to full agonist Pioglitazone at their respective EC50 concentration. Type of assay: cell-based.

Protein sequences, listed by entry. Tags and fused reporters are not part of them. Residues count along the entry.
UniProt P37231, 238-503 limits assumed: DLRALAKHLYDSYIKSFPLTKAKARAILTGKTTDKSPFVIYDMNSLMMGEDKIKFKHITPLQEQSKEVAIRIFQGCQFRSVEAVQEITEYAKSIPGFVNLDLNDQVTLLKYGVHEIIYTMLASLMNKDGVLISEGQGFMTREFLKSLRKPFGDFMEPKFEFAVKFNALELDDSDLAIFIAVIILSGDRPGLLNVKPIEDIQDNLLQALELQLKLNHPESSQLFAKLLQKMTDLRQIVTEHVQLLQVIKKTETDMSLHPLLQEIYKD

Molecules are shown by their SMILES.

On to `COc1cc(/C=C/C(=O)NCCc2ccc(O)cc2)ccc1O`, for which the EC50 (in general, the concentration giving half of the maximal effect) was 5.6 µM and the Agonistic intensity stood at 37%.

The molecule `Cc1nc(C(C#N)=NNc2ccccc2[N+](=O)[O-])sc1N=Nc1ccccc1` had an EC50 of 2.1 µM and an Agonistic intensity of 63%.

The values above are taken from article PMC6130577, “Rational screening of peroxisome proliferator-activated receptor-γ agonists from natural products: potential therapeutics for heart failure” (Pharmaceutical Biology, 2016).
